The numbers were not newly measured in publication PMC10444817, “New proapoptotic chemotherapeutic agents based on the quinolone-3-carboxamide scaffold acting by VEGFR-2 inhibition” (Scientific Reports, 2023), which cites them from elsewhere.

The data set relates to VEGFR-2 gene. The settings on record: cited from earlier work.

On to `CNC(=O)c1cc(Oc2ccc(NC(=O)Nc3ccc(Cl)c(C(F)(F)F)c3)cc2)ccn1` [Sorafenib], for which the “Effect on VEGFR-2 expression in HepG2 cells” value is “upregulation of VEGFR-2”.
